Values of other authors in patent US20250205375A1, “HER3 RADIOIMMUNOTHERAPY FOR THE TREATMENT OF SOLID CANCERS” (ACTINIUM PHARMACEUTICALS, INC., priority 2023, published 2025).

Protein sequences, listed by entry. Tags and fused reporters are not part of them.
UniProt P09874, whole entry, species assumed: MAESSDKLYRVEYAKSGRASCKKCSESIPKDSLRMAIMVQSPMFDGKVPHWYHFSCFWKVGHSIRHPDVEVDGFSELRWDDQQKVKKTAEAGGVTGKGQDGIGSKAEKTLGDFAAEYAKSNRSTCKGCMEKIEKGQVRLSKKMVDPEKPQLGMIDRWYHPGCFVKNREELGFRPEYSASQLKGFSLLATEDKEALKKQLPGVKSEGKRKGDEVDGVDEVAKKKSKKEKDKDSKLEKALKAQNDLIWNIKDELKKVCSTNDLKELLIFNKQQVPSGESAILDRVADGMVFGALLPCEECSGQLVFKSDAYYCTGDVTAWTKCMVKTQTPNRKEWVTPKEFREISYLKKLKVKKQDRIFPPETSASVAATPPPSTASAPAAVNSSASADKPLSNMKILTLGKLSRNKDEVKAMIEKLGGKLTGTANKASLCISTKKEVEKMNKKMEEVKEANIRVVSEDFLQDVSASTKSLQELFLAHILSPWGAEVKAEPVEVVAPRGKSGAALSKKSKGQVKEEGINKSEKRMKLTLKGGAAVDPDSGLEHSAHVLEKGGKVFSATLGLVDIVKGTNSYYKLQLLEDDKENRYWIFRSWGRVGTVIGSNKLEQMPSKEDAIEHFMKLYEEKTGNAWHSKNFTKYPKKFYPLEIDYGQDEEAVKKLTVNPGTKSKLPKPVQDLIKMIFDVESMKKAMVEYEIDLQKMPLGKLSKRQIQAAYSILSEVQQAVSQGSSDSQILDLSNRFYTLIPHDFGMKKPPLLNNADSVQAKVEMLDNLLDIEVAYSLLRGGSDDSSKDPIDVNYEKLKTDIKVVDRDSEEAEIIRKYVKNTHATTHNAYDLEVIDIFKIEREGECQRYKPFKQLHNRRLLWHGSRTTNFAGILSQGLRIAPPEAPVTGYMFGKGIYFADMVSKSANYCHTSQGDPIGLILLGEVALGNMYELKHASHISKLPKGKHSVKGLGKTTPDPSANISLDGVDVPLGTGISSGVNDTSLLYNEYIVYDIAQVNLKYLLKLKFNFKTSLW

Biological target: PARP1 (Homo sapiens, UniProt P09874)
Conditions: compared with veliparib; cited from earlier work

Cn1ncnc1[C@H]1c2n[nH]c(=O)c3cc(F)cc(c23)N[C@@H]1c1ccc(F)cc1 [talazoparib]
trapping PARP1: more effective
